Laboratory results as given in ChEMBL document CHEMBL1145152, “Design, synthesis, and antifolate activity of new analogues of piritrexim and other diaminopyrimidine dihydrofolate reductase inhibitors with omega-carboxyalkoxy or omega-carboxy-1-alkynyl substitution in the side chain” (J Med Chem, 2005).

System: Dihydrofolate reductase (Pneumocystis carinii)
Conditions: Mycobacterium avium

`COc1ccc(OCCCC(=O)O)cc1Cc1cnc2nc(N)nc(N)c2c1C` gave a Selectivity index of 5.1.
